Laboratory results reported in patent US11400106B2, “Methods for inhibiting microbe growth” (priority 2018, dated 2022).
≈ marks a conversion by molar mass, not a printed value.

Key:
[1] = system: E. coli
[2] = system: S. aureus; conditions: S. aureus (Newman strain) (MSSA)

In the case of `CC[C@H](C)[C@H](N)C(=O)N[C@@H](CC(C)C)C(=O)N1CCC[C@H]1C(=O)N[C@@H](Cc1c[nH]c2ccccc12)C(=O)N[C@@H](CCCCN)C(=O)N[C@@H](Cc1c[nH]c2ccccc12)C(=O)N1CCC[C@H]1C(=O)N[C@@H](Cc1c[nH]c2ccccc12)C(=O)N[C@@H](Cc1c[nH]c2ccccc12)C(=O)N1CCC[C@H]1C(=O)N[C@@H](Cc1c[nH]c2ccccc12)C(=O)N[C@@H](CCCNC(=N)N)C(=O)N[C@@H](CCCNC(=N)N)C(N)=O` [Indolicidin], the “enhancement of antimicrobial activity in the presence of bicarbonate” value [1] is reported as 128 fold, the “MIC in MHB” value [2] is reported as 128 µg/mL (≈ 67.1 µM) and the “MIC in MHB + 25 mM bicarbonate” value [2] is reported as 8 µg/mL.
